Assay results reported in US5202315A, “Cephalosporin compounds” (Lucky, Ltd., priority 1989, dated 1993).
Where two headings read alike, the source gives them in different places.

Assay: In-vivo absorbency (plasma concentrations & pharmacokinetic parameters)
Conditions: rat, iv, 20 mg/kg, SD male rat, two compartment model
Text: The blood samples from the femoral vein of the rats were taken every hour after administration, and analyzed by bio-assay(agar well method).
Tested animal: SD male Rat (220~340 g)

Work on `CC(C)(O/N=C(\C(=O)N[C@@H]1C(=O)N2C(C(=O)[O-])=C(C[n+]3ccccc3)CS[C@H]12)c1csc(N)n1)C(=O)O` [Ceftazidime, reference compound] yielded a half-life (read-out: T1/2 (α)) of 5 min and a half-life (read-out: T1/2 (β)) of 20 min.
